Experimental data reported in PubChem BioAssay (NCI).
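Compound exposure: 48 hours, 5 concentrations, 96-well plates. GI50 = concentration required for 50% inhibition of growth. TGI is the concentration that stops growth completely.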

Experiments:
Test in all cases: NCI anticancer screen, dose series, 48 h
[1] = test system: ACHN renal
[2] = test system: MDA-MB-435
[3] = test system: NCI-H460 lung
[4] = test system: SN12C renal
[5] = test system: MDA-N
[6] = test system: A549 NSCLC
[7] = test system: SR leukemia
[8] = test system: SK-OV-3 ovarian
[9] = test system: HCC-2998 colon
[10] = test system: HOP-92 NSCLC
[11] = test system: MALME-3M melanoma
[12] = test system: T-47D breast
[13] = test system: CAKI-1 renal
[14] = test system: OVCAR-5 ovarian
[15] = test system: SW-620 colon
[16] = test system: NCI-H522 lung
[17] = test system: OVCAR-3 ovarian
[18] = test system: SNB-19 CNS
[19] = test system: SF-295 CNS
[20] = test system: PC-3 prostate
[21] = test system: IGROV1 ovarian
[22] = test system: MCF7 breast
[23] = test system: DU-145 prostate
[24] = test system: A498 renal
[25] = test system: HT29 colon
[26] = test system: OVCAR-4 ovarian
[27] = test system: NCI-H23 lung
[28] = test system: HS 578T breast
[29] = test system: NCI-H322M lung
[30] = test system: HCT-116 colon
[31] = test system: 786-0 renal
[32] = test system: SNB-75 CNS
[33] = test system: MDA-MB-231 breast
[34] = test system: K-562 leukemia
[35] = test system: RPMI-8226 leukemia
[36] = test system: NCI/ADR-RES ovarian
[37] = test system: SK-MEL-28 melanoma
[38] = test system: HL-60(TB) leukemia
[39] = test system: BT-549 breast
[40] = test system: UACC-62 melanoma
[41] = test system: EKVX NSCLC
[42] = test system: MOLT-4 leukemia
[43] = test system: UO-31 renal
[44] = test system: HOP-62 NSCLC
[45] = test system: COLO 205 colon
[46] = test system: LOX IMVI melanoma
[47] = test system: UACC-257 melanoma
[48] = test system: KM12 colon
[49] = test system: M14 melanoma
[50] = test system: NCI-H226 lung
[51] = test system: SK-MEL-5 melanoma
[52] = test system: SF-539 CNS
[53] = test system: U251 CNS
[54] = test system: SF-268 CNS
[55] = test system: OVCAR-8 ovarian
[56] = test system: RXF 393 renal
[57] = test system: TK-10 renal
[58] = test system: SK-MEL-2 melanoma
[59] = test system: CCRF-CEM leukemia
[60] = test system: HCT-15 colon

Work on `NC1CCCCC1.NP(=O)(O)N(CCCl)CCCl` yielded a GI50 [1] of 9.84 µM, a TGI [1] of over 100 µM and a GI50 [2] of over 100 µM. It also gave a TGI [2] of over 100 µM, a GI50 [3] of 4.07 µM and a TGI [3] of 52.7 µM. For the same compound, the GI50 [4] was 53.5 µM, the TGI [4] was over 100 µM and the GI50 [5] was over 100 µM. It also gave a TGI [5] of over 100 µM, a GI50 [6] of 93.7 µM and a TGI [6] of over 100 µM. It also gave a GI50 [7] of 4.9 µM, a TGI [7] of over 100 µM and a GI50 [8] of 89.9 µM. The TGI [8] was over 100 µM, the GI50 [9] was over 100 µM and the TGI [9] was over 100 µM. It also gave a GI50 [10] of 98.9 µM, a TGI [10] of over 100 µM and a GI50 [11] of over 100 µM. It also gave a TGI [11] of over 100 µM, a GI50 [12] of over 100 µM and a TGI [12] of over 100 µM. It also gave a GI50 [13] of 28.8 µM, a TGI [13] of over 100 µM and a GI50 [14] of over 100 µM. For the same compound, the TGI [14] was over 100 µM, the GI50 [15] was 70.9 µM and the TGI [15] was over 100 µM. For the same compound, the GI50 [16] was 75.5 µM, the TGI [16] was over 100 µM and the GI50 [17] was over 100 µM. It also gave a TGI [17] of over 100 µM, a GI50 [18] of 83.6 µM and a TGI [18] of over 100 µM. It also gave a GI50 [19] of 66.5 µM, a TGI [19] of over 100 µM and a GI50 [20] of over 100 µM. The TGI [20] was over 100 µM, the GI50 [21] was over 100 µM and the TGI [21] was over 100 µM. It also gave a GI50 [22] of 58.2 µM, a TGI [22] of over 100 µM and a GI50 [23] of 51.1 µM. For the same compound, the TGI [23] was over 100 µM, the GI50 [24] was over 100 µM and the TGI [24] was over 100 µM. For the same compound, the GI50 [25] was over 100 µM, the TGI [25] was over 100 µM and the GI50 [26] was over 100 µM. It also gave a TGI [26] of over 100 µM, a GI50 [27] of 45.5 µM and a TGI [27] of over 100 µM. For the same compound, the GI50 [28] was over 100 µM, the TGI [28] was over 100 µM and the GI50 [29] was over 100 µM. It also gave a TGI [29] of over 100 µM, a GI50 [30] of over 100 µM and a TGI [30] of over 100 µM. The GI50 [31] was 67.4 µM, the TGI [31] was over 100 µM and the GI50 [32] was over 100 µM. It also gave a TGI [32] of over 100 µM, a GI50 [33] of over 100 µM and a TGI [33] of over 100 µM. The GI50 [34] was over 100 µM, the TGI [34] was over 100 µM and the GI50 [35] was over 100 µM. It also gave a TGI [35] of over 100 µM, a GI50 [36] of over 100 µM and a TGI [36] of over 100 µM. The GI50 [37] was over 100 µM, the TGI [37] was over 100 µM and the GI50 [38] was 39 µM. For the same compound, the TGI [38] was over 100 µM, the GI50 [39] was over 100 µM and the TGI [39] was over 100 µM. It also gave a GI50 [40] of 73.4 µM, a TGI [40] of over 100 µM and a GI50 [41] of over 100 µM. For the same compound, the TGI [41] was over 100 µM, the GI50 [42] was 6 µM and the TGI [42] was 66.1 µM. It also gave a GI50 [43] of 60.3 µM, a TGI [43] of over 100 µM and a GI50 [44] of 64.8 µM. It also gave a TGI [44] of over 100 µM, a GI50 [45] of over 100 µM and a TGI [45] of over 100 µM. The GI50 [46] was 69.3 µM, the TGI [46] was over 100 µM and the GI50 [47] was 99.5 µM. For the same compound, the TGI [47] was over 100 µM, the GI50 [48] was over 100 µM and the TGI [48] was over 100 µM. It also gave a GI50 [49] of 62.6 µM, a TGI [49] of over 100 µM and a GI50 [50] of over 100 µM. It also gave a TGI [50] of over 100 µM, a GI50 [51] of over 100 µM and a TGI [51] of over 100 µM. It also gave a GI50 [52] of over 100 µM, a TGI [52] of over 100 µM and a GI50 [53] of 83.3 µM. The TGI [53] was over 100 µM, the GI50 [54] was 80.9 µM and the TGI [54] was over 100 µM. The GI50 [55] was over 100 µM, the TGI [55] was over 100 µM and the GI50 [56] was over 100 µM. It also gave a TGI [56] of over 100 µM, a GI50 [57] of over 100 µM and a TGI [57] of over 100 µM. For the same compound, the GI50 [58] was over 100 µM, the TGI [58] was over 100 µM and the GI50 [59] was 36.5 µM. The TGI [59] was over 100 µM, the GI50 [60] was over 100 µM and the TGI [60] was over 100 µM.
